Results reported in patent US20140023611A1 (priority 2010, published 2014).
Values belong to the molecule of their own block, whether it stands above or below them.

Chains of the proteins cited; added tags and fusions are not shown.
UniProt Q9JJ09, whole entry: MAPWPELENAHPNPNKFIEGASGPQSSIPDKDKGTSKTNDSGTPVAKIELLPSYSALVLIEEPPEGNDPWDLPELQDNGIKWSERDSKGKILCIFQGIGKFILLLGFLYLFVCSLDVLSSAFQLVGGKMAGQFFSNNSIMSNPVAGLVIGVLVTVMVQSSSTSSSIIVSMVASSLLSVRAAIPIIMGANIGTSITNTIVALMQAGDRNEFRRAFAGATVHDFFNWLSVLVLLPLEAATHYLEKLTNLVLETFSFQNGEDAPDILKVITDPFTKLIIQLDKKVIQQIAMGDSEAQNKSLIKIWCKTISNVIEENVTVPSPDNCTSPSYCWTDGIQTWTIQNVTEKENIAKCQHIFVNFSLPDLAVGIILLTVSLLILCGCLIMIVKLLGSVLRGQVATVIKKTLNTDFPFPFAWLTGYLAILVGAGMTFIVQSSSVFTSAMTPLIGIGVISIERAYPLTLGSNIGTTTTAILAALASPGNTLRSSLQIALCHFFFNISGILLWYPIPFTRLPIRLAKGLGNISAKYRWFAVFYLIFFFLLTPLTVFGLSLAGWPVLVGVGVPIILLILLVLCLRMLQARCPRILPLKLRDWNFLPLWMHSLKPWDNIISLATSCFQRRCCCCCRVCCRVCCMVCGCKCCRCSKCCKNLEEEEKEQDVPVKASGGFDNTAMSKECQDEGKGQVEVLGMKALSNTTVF
UniProt O95436, whole entry: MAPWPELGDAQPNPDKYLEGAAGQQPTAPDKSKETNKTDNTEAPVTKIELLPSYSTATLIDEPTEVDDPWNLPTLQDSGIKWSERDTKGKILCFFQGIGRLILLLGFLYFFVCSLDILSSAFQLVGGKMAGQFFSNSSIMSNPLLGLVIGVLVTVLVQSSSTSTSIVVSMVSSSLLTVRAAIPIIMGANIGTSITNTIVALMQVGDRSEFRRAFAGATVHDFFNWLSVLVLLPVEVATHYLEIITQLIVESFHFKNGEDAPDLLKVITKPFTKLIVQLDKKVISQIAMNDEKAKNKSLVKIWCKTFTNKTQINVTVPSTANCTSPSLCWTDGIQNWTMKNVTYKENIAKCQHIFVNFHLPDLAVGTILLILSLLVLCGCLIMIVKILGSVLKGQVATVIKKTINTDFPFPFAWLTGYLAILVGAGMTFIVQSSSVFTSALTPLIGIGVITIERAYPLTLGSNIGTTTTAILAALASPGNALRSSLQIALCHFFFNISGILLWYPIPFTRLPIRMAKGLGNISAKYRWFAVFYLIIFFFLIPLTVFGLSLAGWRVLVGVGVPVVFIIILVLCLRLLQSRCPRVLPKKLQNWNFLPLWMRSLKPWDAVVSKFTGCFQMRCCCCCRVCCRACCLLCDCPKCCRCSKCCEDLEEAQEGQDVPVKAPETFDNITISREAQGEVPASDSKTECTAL

Columns and labels:
rat NaP2b (SLC34A2) [1] = target: T1, rat NaP2b (SLC34A2) (Rattus norvegicus, UniProt Q9JJ09); assay: Inhibition of NaP2b-mediated Pi (33P) uptake in transfected HEK293 cells, rat NaP2b; conditions: 33P Pi uptake, 0.1 mM phosphate, value given as pIC50 range
human NaP2b (SLC34A2) = human NaP2b (SLC34A2) (Homo sapiens, UniProt O95436); assay: Inhibition of NaP2b-mediated Pi (33P) uptake in transfected HEK293 cells, human NaP2b; conditions: 33P Pi uptake, 0.1 mM phosphate, value given as pIC50 range
rat NaP2b (SLC34A2) [2] = target: T1, rat NaP2b (SLC34A2); assay: NaP2b-mediated Pi transport (33P uptake) in transfected HEK293 cells, rat NaP2b; conditions: Structure (V) examples
[3] = test system: uptake of phosphate from the intestine; assay: In vivo assay: bolus phosphorus (phosphate) challenge; conditions: Structure (V) examples, Table 4, rat, oral 30 mg/kg

pIC50 range for rat Nap2b (rat NaP2b (SLC34A2) [1]): 5.1-6.0
Compound: O=C(O)CCSCc1cccc(C(=O)Nc2ccc(N3CCCCC3)cc2-c2cc(C(=O)NCc3ccccc3)ccn2)c1

pIC50 range for rat Nap2b (rat NaP2b (SLC34A2) [1]): 5.1-6.0 | pIC50 range for human NaP2b (human NaP2b (SLC34A2)): 5.1-6.0
Compound: CCN(CC)c1ccc(NC(=O)c2cccc(CCCOCCOCCOCCOCCNC(=O)c3ccc(CCCOCCOCCOCCOCCC(=O)O)cc3)c2)c(-c2cc(C(=O)NCc3cccc(C(F)(F)F)c3)ccn2)c1

pIC50 range for rat Nap2b (rat NaP2b (SLC34A2) [1]): 5.1-6.0
Compound: CCN(CC)c1ccc(NC(=O)c2cccc(CCCOCCOCCOCCOCCNS(=O)(=O)c3ccc(O)c(C(=O)O)c3)c2)c(-c2cc(C(=O)N[C@H]3CCCc4ccccc43)ccn2)c1

The next lines start with the molecule.

Compound: O=C(Nc1ccc(N2CCCCC2)cc1C(=O)N/N=C/c1ccc(Cl)c(C(F)(F)F)c1)c1cccc(Cn2cc(CCO)cn2)c1
pIC50 Range (rat NaP2b (SLC34A2) [2]; Table 2): 6.1-7.0 | % Decrease in serum [Pi] [3]: 24% | Serum increase [Pi] mg/dL from baseline low PI state ([3]; mean ± SD, vehicle 5.0 ± 1.3): 3.8 ± 0.7 mg/dL

Compound: O=C(Nc1ccc(N2CCCCC2)cc1C(=O)N/N=C/c1ccc(Cl)c(C(F)(F)F)c1)c1cccc(Cn2cc[n+](CCO)c2)c1
pIC50 Range (rat NaP2b (SLC34A2) [2]; Table 2, tested form: bromide): 5.1-6.0
